# PubChem BioAssay AID504634 (The Scripps Research Institute Molecular Screening Center, 2011)
# Amino acid sequences for entries named in this document (tags omitted).
# UniProt P47898, whole entry: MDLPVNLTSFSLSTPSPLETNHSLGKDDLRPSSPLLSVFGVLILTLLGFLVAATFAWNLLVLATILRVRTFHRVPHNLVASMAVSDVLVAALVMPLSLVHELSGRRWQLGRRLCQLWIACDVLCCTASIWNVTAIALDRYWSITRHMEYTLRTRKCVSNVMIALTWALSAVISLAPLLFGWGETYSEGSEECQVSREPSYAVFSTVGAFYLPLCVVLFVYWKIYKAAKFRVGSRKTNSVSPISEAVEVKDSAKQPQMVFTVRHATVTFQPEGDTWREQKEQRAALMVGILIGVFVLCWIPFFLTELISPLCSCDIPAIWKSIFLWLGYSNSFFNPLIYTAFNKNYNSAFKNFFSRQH
# The list shows a part of the results, in another mix than the full data. Some salts and complexes are drawn in separate pieces, as the source files them; their charges need not balance. The source made the active and inactive calls. No stated cut-off is given here; in the data, active means inhibition mostly above about 23% (no sharp cut-off); inactive means mostly below about 18%.
# Biological target: 5-hydroxytryptamine receptor 5A (Homo sapiens) (UniProt P47898)
# Assay: inverse agonism at human 5-HT5A receptor – cell-based, luminescence, full-deck HTS, counter-screen for OPRM1-OPRD1 heterodimer inverse agonist project, primary screen (AID 504634);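 further: 0% = cells with DMSO and 100% = no-cell wells with DMSO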
# Details: HTR5A cell line, at 9.3 µM, stronger effect = higher value
row,SMILES,inhibition
1,Cc1ccccc1NP(C)(=O)Nc1ccccc1C,inactive: 5.7%
2,CP(=O)(Nc1ccc2c(c1)OCCO2)Oc1ccccc1 (configuration not stated),inactive: -8.13%
3,CCOP(C)(=S)SCC(=O)NC(C)(CC)C(=O)O (configuration not stated),inactive: -2.24%
4,CP(=O)(Nc1ccc(SC(F)(F)F)cc1)Oc1ccc(F)cc1 (configuration not stated),inactive: 23.4%
5,Cc1c(C(c2ccc3c(c2)OCO3)c2c(C)n(C)n(-c3ccccc3)c2=O)c(=O)n(-c2ccccc2)n1C.O=[N+]([O-])c1cc([N+](=O)[O-])c(O)c([N+](=O)[O-])c1,inactive: 8.09%
6,O=[N+]([O-])c1cc([N+](=O)[O-])c(NCC2CCS(=O)(=O)C2)c([N+](=O)[O-])c1 (configuration not stated),inactive: 0.87%
7,Cc1cc(-c2cccc3ccccc23)c(C)cn1.O=[N+]([O-])c1cc([N+](=O)[O-])c(O)c([N+](=O)[O-])c1,inactive: -6.47%
8,O=[N+]([O-])c1ccc(OP2(=O)COCCO2)cc1 (configuration not stated),inactive: 8.52%
9,COc1ccc(NP(C)(=O)Oc2ccccc2OC)cc1 (configuration not stated),inactive: -1.3%
10,CN(C)CCOC(=O)C(O)(c1ccccc1)C1CCCCC1 (configuration not stated),inactive: 5.93%
11,CN(C)C1(CNC(=O)c2ccc(Cl)c(S(N)(=O)=O)c2)CCCCC1,inactive: -19.2%
12,COc1ccc(OP(C)(=O)Nc2cccc(Br)c2)cc1 (configuration not stated),inactive: -3.71%
13,O=[N+]([O-])c1cc([N+](=O)[O-])c(OC2CCCCC2O)c([N+](=O)[O-])c1 (configuration not stated),inactive: 18.8%
14,CCCCCOc1ccc(NP(C)(=O)Oc2ccc(Cl)cc2Cl)cc1 (configuration not stated),inactive: -6.85%
15,CP(=O)(Nc1ccccc1)Oc1ccc(F)cc1 (configuration not stated),inactive: 3.96%
16,CCN(CC)CCCOC(=O)C(O)(c1ccccc1)C1CCCCC1 (configuration not stated),inactive: 5.27%
17,Cc1c([N+](=O)[O-])cc([N+](=O)[O-])c(Br)c1[N+](=O)[O-],inactive: -14%
18,COc1ccc(OP(C)(=O)Nc2ccc(SC(F)(F)F)cc2)cc1 (configuration not stated),inactive: 6.22%
19,CCOC(=O)c1ccc(NP(C)(=O)Oc2ccc(F)cc2)cc1 (configuration not stated),inactive: -42.7%
20,COc1ccc2c(c1O)-c1c(O)c(OC)cc3c1[C@H](C2)[N+](C)(C)CC3.O=[N+]([O-])c1cc([N+](=O)[O-])c([O-])c([N+](=O)[O-])c1[O-],inactive: -7.42%
21,O=C(OCCN1CCN(CCOCc2ccccc2)CC1)C(O)(c1ccccc1)c1ccccc1,inactive: 12.7%
22,O=C(OC1CN2CCC1CC2)c1ccc([N+](=O)[O-])cc1 (configuration not stated),inactive: -34.3%
23,CC(C)c1ccc(OP(C)(=O)Nc2ccc(SC(F)(F)F)cc2)cc1 (configuration not stated),inactive: -11.5%
24,CP(=O)(Nc1ccccc1F)Oc1ccccc1 (configuration not stated),inactive: 18.3%
25,CCc1ccc(OP(C)(=O)O)cc1,inactive: 6.81%
26,CP(=O)(Nc1ccccn1)Oc1ccccc1 (configuration not stated),inactive: -11.5%

row,SMILES,inhibition
1,COc1ccccc1OP(C)(=O)Nc1ccc(C)cc1C (configuration not stated),inactive: -16.2%
2,Cc1c(NP(C)(=O)Oc2ccc(C(C)C)cc2)c(=O)n(-c2ccccc2)n1C (configuration not stated),inactive: 1.04%
3,O=[N+]([O-])c1cc([N+](=O)[O-])c(Nc2ccccn2)c([N+](=O)[O-])c1,inactive: 29.6%
4,CN(C)CCOC(=O)C(O)(c1ccccc1)C1CCCC1 (configuration not stated),inactive: 9.98%
5,COc1ccc(OP(C)(=O)Nc2ccccn2)cc1 (configuration not stated),inactive: -29.4%
6,COc1ccccc1OP(C)(=O)Nc1ccc(Br)cc1 (configuration not stated),inactive: -17.6%
7,CP(=O)(Nc1ccc(Cl)cc1Cl)Oc1ccccc1 (configuration not stated),inactive: 5.76%
8,CCCCCCCCCCCCCCCC1C[N+](C)(C)CCOP(C)(=O)O1 (configuration not stated),inactive: 15.4%
9,CP(=O)(OCCOc1ccccc1)OCCOc1ccccc1,inactive: -2.14%
10,COc1ccc(OP(C)(=O)Nc2ccccc2Br)cc1 (configuration not stated),inactive: 10.4%
11,COc1ccccc1OP(C)(=O)Nc1ccc(C)c(C)c1 (configuration not stated),inactive: -7.26%
12,O=C1C(O)=C([N+](=O)[O-])C(=O)C(O)=C1[N+](=O)[O-],inactive: -9.73%
13,Cc1cc(C)cc(OP(C)(=O)Nc2cccc(C(F)(F)F)c2)c1 (configuration not stated),inactive: -6.44%
14,CP(=O)(OC12CC3CC(CC(C3)C1)C2)OC12CC3CC(CC(C3)C1)C2,inactive: 2.74%
15,CCOC(=O)c1ccc(NP(C)(=O)Oc2ccc(Cl)cc2)cc1 (configuration not stated),inactive: 11.3%
16,CCCCN1CCC(C#N)(Nc2ccccc2)CC1,inactive: 8.8%
17,CN(C)C(=O)c1c([N+](=O)[O-])cc([N+](=O)[O-])cc1[N+](=O)[O-],inactive: -2.4%
18,CP(=O)(Nc1ccc(Cl)cc1)Oc1ccc(F)cc1 (configuration not stated),inactive: -12.8%
19,COc1ccccc1OP(C)(=O)Nc1ccccc1Br (configuration not stated),inactive: 7.03%
20,CC(C)(C)c1ccc(OP(C)(=O)O)cc1,inactive: 24.9%
21,CP(=O)(Oc1ccccc1)N1CCOC1=O (configuration not stated),inactive: 6.66%
22,CCc1ccc(OP(C)(=O)Nc2cccnc2)cc1 (configuration not stated),inactive: -8.4%
23,COc1ccccc1OP(C)(=O)Nc1c(C)n(C)n(-c2ccccc2)c1=O (configuration not stated),inactive: 0.96%
24,O=C(OCCCN1CCCC1)C(O)(c1ccccc1)C1CCCCC1 (configuration not stated),inactive: 4.97%
25,CCN(CC)CC(O)COC(=O)C(O)(c1ccccc1)C1CCCCC1 (configuration not stated),inactive: 5.33%
26,COc1ccc(OP(C)(=O)Nc2ccc(Br)cc2)cc1 (configuration not stated),inactive: -6.23%

row,SMILES,inhibition
1,CP(=O)(Nc1ccccn1)Oc1ccc(Cl)cc1 (configuration not stated),inactive: 2.12%
2,CCOP(C)(=S)SCC(=O)NC(C)C(=O)O (configuration not stated),inactive: -17.9%
3,CCOC(=O)c1ccc(NP(C)(=O)Oc2ccc(OC)cc2)cc1 (configuration not stated),inactive: 17.3%
4,CP(=O)(NC(=O)Nc1ccccc1)Oc1ccccc1 (configuration not stated),inactive: 22%
5,CCc1ccc(OP(C)(=O)N2CCN(c3ccc([N+](=O)[O-])cc3)CC2)cc1 (configuration not stated),inactive: -6.13%
6,Cc1cc(C)cc(OP(C)(=O)Nc2ccc(SC(F)(F)F)cc2)c1 (configuration not stated),inactive: -23.2%
7,O=C(C1CCN(S(=O)(=O)c2cccc3nsnc23)CC1)N1CCn2c1nc1ccccc12,active: 84.3%
8,Cc1cccc(C)c1OP(C)(=O)Nc1ccc(SC(F)(F)F)cc1 (configuration not stated),inactive: 0.57%
9,CP(=O)(Oc1ccccc1)OC(c1ccccc1)C(F)(F)F (configuration not stated),inactive: -11%
10,C=CCC1(Nc2ccccc2)CC(C)N(C)CC1C (configuration not stated),inactive: -3.19%
11,COc1ccccc1OP(C)(=O)Nc1ccccc1 (configuration not stated),inactive: -3.66%
12,CP(=O)(Nc1ccccc1Br)Oc1ccccc1 (configuration not stated),inactive: 7.21%
13,CP(=S)(Nn1cnnc1)Oc1ccccc1 (configuration not stated),inactive: 11.2%
14,CCCCOc1ccc(C(=O)NCC2(N3CCCCC3)CCCCC2)cc1OC,inactive: 6.08%
15,O=C(C1CCN(S(=O)(=O)c2cccc3cccnc23)CC1)N1CCn2c1nc1ccccc12,active: 84%
16,COc1ccccc1OP(C)(=O)Nc1cc(Cl)ccc1C (configuration not stated),inactive: 5.45%
17,COc1ccc(OP(C)(=O)Nc2cccc(F)c2)cc1 (configuration not stated),inactive: -0.63%
18,Cc1cc(C)cc(OP(C)(N)=O)c1 (configuration not stated),inactive: 4.03%
19,CCOC(=O)c1ccc(NP(C)(=O)Oc2ccccc2)cc1 (configuration not stated),inactive: -5.71%
20,Cc1ccc(NP(C)(=O)Oc2ccccc2)c(C)c1 (configuration not stated),inactive: -19.1%
21,CC(C)(C)c1ccc(OP(C)(=O)Nc2ccc(SC(F)(F)F)cc2)cc1 (configuration not stated),inactive: -0.8%
22,Cc1cccc(C)c1OP(C)(N)=O (configuration not stated),inactive: 0.47%
23,O=[N+]([O-])c1ccc2c(c1)C=Nc1ccccc1O2,inactive: -0.83%
24,O=[N+]([O-])c1cc([N+](=O)[O-])c(Nc2cccnc2)c([N+](=O)[O-])c1,inactive: 38.8%
25,Cc1n[nH]c(C)c1S(=O)(=O)N1CCC(C(=O)N2CCn3c2nc2ccccc23)CC1,active: 41.4%
26,COc1cc(C(=O)NCC2(N3CCOCC3)CCCCC2)ccc1OCC(C)C,inactive: 8.6%

row,SMILES,inhibition
1,CCN(CC)CCn1c(NCc2ccc(OC)cc2)nc2ccccc21,inactive: -22.7%
2,Cc1ccc(S(=O)(=O)NCCC(=O)N2CCN(C/C=C/c3ccccc3)CC2)cc1,inactive: -21.5%
3,CCN(CC)CCCOC(=O)C(O)(c1ccccc1)c1ccccc1,inactive: -13.1%
4,Cc1cc(C)cc(OP(C)(=O)Nc2ccccn2)c1 (configuration not stated),inactive: -16%
5,CP(=O)(Nc1cccc(Br)c1)Oc1ccccc1 (configuration not stated),inactive: -20.7%
6,Cc1ccc(C)c(NP(C)(=O)Oc2ccccc2)c1 (configuration not stated),inactive: 33%
7,Cc1cc(C)cc(OP(C)(=O)Nc2ccc(C)cc2C)c1 (configuration not stated),inactive: 11%
8,CCOC(=O)c1ccc(NP(C)(=O)Oc2cc(C)cc(C)c2)cc1 (configuration not stated),inactive: 15.6%
9,COc1cc(C(=O)NCC2(N3CCOCC3)CCCCC2)cc(Cl)c1OC(C)C,inactive: 2.15%
10,COc1ccccc1OP(C)(=O)Nc1cccc(Br)c1 (configuration not stated),inactive: -4.46%
11,CC1=NCCc2c1[nH]c1ccccc21.O=[N+]([O-])c1cc([N+](=O)[O-])c(O)c([N+](=O)[O-])c1,inactive: 9.28%
12,O=C(C1CCN(S(=O)(=O)c2cnc[nH]2)CC1)N1CCn2c1nc1ccccc12,active: 41.4%
13,O=C(O)c1cccc(Nc2c([N+](=O)[O-])cc([N+](=O)[O-])cc2[N+](=O)[O-])c1,inactive: 22.8%
14,CCCOc1ccc(NP(C)(=O)Oc2ccc(Cl)cc2)cc1 (configuration not stated),inactive: 28.1%
15,CP(=O)(Nc1ccc(SC(F)(F)F)cc1)Oc1ccccc1 (configuration not stated),inactive: -10.5%
16,CN1CCCCC1COC(=O)C1(O)c2ccccc2CCc2ccccc21 (configuration not stated),inactive: -5.69%
17,COc1ccccc1OP(C)(=O)Nc1c(C)cccc1C (configuration not stated),inactive: 7.5%
18,CC1=C2N=C(C=C3N=C(C(C)=C4[N-][C@@](C)([C@@H]5N=C1[C@](C)(CCC(=O)NC[C@@H](C)OP(=O)([O-])O[C@H]1[C@@H](O)[C@@H](n6cnc7cc(C)c(C)cc76)O[C@@H]1CO)[C@H]5CC(N)=O)[C@@](C)(CC(N)=O)[C@@H]4CCC(N)=O)[C@@](C)(CC(N)=O)[C@@H]3CCC(N)=O)C(C)(C)[C@@H]2CCC(N)=O.[C-]#N.[Co+3],inactive: 21.6%
19,CN(C)C1(CNC(=O)c2ccc(S(C)(=O)=O)cc2)CCCCC1,inactive: 42.2%
20,O=[N+]([O-])c1cc([N+](=O)[O-])c(Nc2nnnn2CCO)c([N+](=O)[O-])c1,inactive: 20.4%
21,CCOC(=O)C(CC)C1=NC(C)(C)Cc2ccccc21.O=[N+]([O-])c1cc([N+](=O)[O-])c(O)c([N+](=O)[O-])c1 (configuration not stated),inactive: 9.07%
22,Cc1nc2ccc3ccccc3c2s1.O=[N+]([O-])c1cc([N+](=O)[O-])c(O)c([N+](=O)[O-])c1,inactive: 9.5%
23,O=[N+]([O-])c1cc([N+](=O)[O-])c(-c2cnn(-c3ccccc3)c2)c([N+](=O)[O-])c1,inactive: -1.11%
24,O=[N+]([O-])c1cc([N+](=O)[O-])c(-n2nnc3ccccc32)c([N+](=O)[O-])c1,inactive: 0.18%
